The target in this assay is bovine brain PDE1 (Bos taurus, UniProt Q01061).

Turning to `CN1C(=O)c2c(nn(Cc3ccc(-c4cccc(F)n4)cc3)c2Nc2ccccc2)N2C1=N[C@@H]1CCC[C@@H]12` [Compound 214, (6aR,9aS)-5,6a,7,8,9,9a-hexahydro-5-methyl-3-(phenylamino)-2-((4-(6-fluoropyridin-2-yl)phenyl)methyl)-cyclopent[4,5]imidazo[1,2-a]pyrazolo[4,3-e]pyrimidin-4(2H)-one], 0.058 nM corresponded to half-maximal inhibition (IC50).

These data come from patent US20230071934A1, “NOVEL USES” (Intra-Cellular Therapies, Inc., priority 2019, published 2023).
